From the supplement of paper PMC5998384

Legend:
HeLa Kyoto [1] = assay: melting temperature (median over replicates), in situ; higher = more thermally stable
HeLa Kyoto [2] = assay: solubility change mitosis vs G1/S (difference of NP-40 vs SDS log2 ratios) (log2 ratio difference); higher = more soluble in mitosis
HeLa Kyoto [3] = assay: thermal stability score vs G1/S (z-score of summed log2 fold changes over temperatures); higher = more thermally stable than in G1/S
HeLa Kyoto [4] = assay: solubility in G1/S (NP-40 vs SDS abundance) (log2 ratio); higher = more soluble; conditions: cell cycle stage: G1/S
[5] = cell cycle stage: early G1 (4.5 h after nocodazole release)
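Throughout, for melting temperature (median over replicates), in situ: HeLa Kyoto cells synchronized by double thymidine or nocodazole block, proteins quantified by TMT10plex mass spectrometry, three independent biological replicates.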
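Throughout, for solubility change mitosis vs G1/S (difference of NP-40 vs SDS log2 ratios): synchronized HeLa Kyoto cells (double thymidine block for G1/S, nocodazole release for mitosis), protein amounts in NP-40 versus SDS lysates quantified by mass spectrometry, three biological replicates.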
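Throughout, for solubility in G1/S (NP-40 vs SDS abundance): HeLa Kyoto cells arrested at G1/S by double thymidine block, proteins quantified by TMT10plex mass spectrometry in mild NP-40 versus SDS extracts, three biological replicates.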
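Throughout, for thermal stability score vs G1/S (z-score of summed log2 fold changes over temperatures): synchronized HeLa Kyoto cells, proteins quantified by TMT10plex mass spectrometry, three biological replicates, mitosis taken 0.5 h after nocodazole release, G1/S directly after double thymidine block.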

Sequence	melting temperature (HeLa Kyoto [1]; cell cycle stage: G1/S) [°C]	melting temperature (HeLa Kyoto [1]; cell cycle stage: mitosis) [°C]	solubility change mitosis (log2) (HeLa Kyoto [2])	thermal stability score (HeLa Kyoto [3]; [5])	thermal stability score (HeLa Kyoto [3]; cell cycle stage: mitosis)	solubility in G1/S (log2) (HeLa Kyoto [4])
MEEGGRDKAPVQPQQSPAAAPGGTDEKPSGKERRDAGDKDKEQELSEEDKQLQDELEMLVERLGEKDTSLYRPALEELRRQIRSSTTSMTSVPKPLKFLRPHYGKLKEIYENMAPGENKRFAADIISVLAMTMSGERECLKYRLVGSQEELASWGHEYVRHLAGEVAKEWQELDDAEKVQREPLLTLVKEIVPYNMAHNAEHEACDLLMEIEQVDMLEKDIDENAYAKVCLYLTSCVNYVPEPENSALLRCALGVFRKFSRFPEALRLALMLNDMELVEDIFTSCKDVVVQKQMAFMLGRHGVFLELSEDVEEYEDLTEIMSNVQLNSNFLALARELDIMEPKVPDDIYKTHLENNRFGGSGSQVDSARMNLASSFVNGFVNAAFGQDKLLTDDGNKWLYKNKDHGMLSAAASLGMILLWDVDGGLTQIDKYLYSSEDYIKSGALLACGIVNSGVRNECDPALALLSDYVLHNSNTMRLGSIFGLGLAYAGSNREDVLTLLLPVMGDSKSSMEVAGVTALACGMIAVGSCNGDVTSTILQTIMEKSETELKDTYARWLPLGLGLNHLGKGEAIEAILAALEVVSEPFRSFANTLVDVCAYAGSGNVLKVQQLLHICSEHFDSKEKEEDKDKKEKKDKDKKEAPADMGAHQGVAVLGIALIAMGEEIGAEMALRTFGHLLRYGEPTLRRAVPLALALISVSNPRLNILDTLSKFSHDADPEVSYNSIFAMGMVGSGTNNARLAAMLRQLAQYHAKDPNNLFMVRLAQGLTHLGKGTLTLCPYHSDRQLMSQVAVAGLLTVLVSFLDVRNIILGKSHYVLYGLVAAMQPRMLVTFDEELRPLPVSVRVGQAVDVVGQAGKPKTITGFQTHTTPVLLAHGERAELATEEFLPVTPILEGFVILRKNPNYDL [PSMD2]	52.2	51.9	-0.133	1.49	1.55	0.049
MGCTLSAEDKAAVERSKMIDRNLREDGEKAAREVKLLLLGAGESGKSTIVKQMKIIHEAGYSEEECKQYKAVVYSNTIQSIIAIIRAMGRLKIDFGDSARADDARQLFVLAGAAEEGFMTAELAGVIKRLWKDSGVQACFNRSREYQLNDSAAYYLNDLDRIAQPNYIPTQQDVLRTRVKTTGIVETHFTFKDLHFKMFDVGGQRSERKKWIHCFEGVTAIIFCVALSDYDLVLAEDEEMNRMHESMKLFDSICNNKWFTDTSIILFLNKKDLFEEKIKKSPLTICYPEYAGSNTYEEAAAYIQCQFEDLNKRKDTKEIYTHFTCATDTKNVQFVFDAVTDVIIKNNLKDCGLF [GNAI1]	55.5	55.7	-0.105	-2.75	0.954	-0.716
MGLLSILRKLKSAPDQEVRILLLGLDNAGKTTLLKQLASEDISHITPTQGFNIKSVQSQGFKLNVWDIGGQRKIRPYWKNYFENTDILIYVIDSADRKRFEETGQELAELLEEEKLSCVPVLIFANKQDLLTAAPASEIAEGLNLHTIRDRVWQIQSCSALTGEGVQDGMNWVCKNVNAKKK [ARL3]	53.2	54.6	0.0342	-1.54	-1.98	0.543
MGLLTILKKMKQKERELRLLMLGLDNAGKTTILKKFNGEDIDTISPTLGFNIKTLEHRGFKLNIWDVGGQKSLRSYWRNYFESTDGLIWVVDSADRQRMQDCQRELQSLLVEERLAGATLLIFANKQDLPGALSSNAIREVLELDSIRSHHWCIQGCSAVTGENLLPGIDWLLDDISSRIFTAD [ARL2]	53.7	53.1	-0.106	1.79	1.05	0.111
MGNSRSRVGRSFCSQFLPEEQAEIDQLFDALSSDKNSPNVSSKSFSLKALQNHVGEALPPEMVTRLYDGMRRVDLTGKAKGPSENVSQEQFTASMSHLLKGNSEEKSLMIMKMISATEGPVKAREVQKFTEDLVGSVVHVLSHRQELRGWTGKEAPGPNPRVQVLAAQLLSDMKLQDGKRLLGPQWLDYDCDRAVIEDWVFRVPHVAIFLSVVICKGFLILCSSLDLTTLVPERQVDQGRGFESILDVLSVMYINAQLPREQRHRWCLLFSSELHGHSFSQLCGHITHRGPCVAVLEDHDKHVFGGFASCSWEVKPQFQGDNRCFLFSICPSMAVYTHTGYNDHYMYLNHGQQTIPNGLGMGGQHNYFGLWVDVDFGKGHSRAKPTCTTYNSPQLSAQENFQFDKMEVWAVGDPSEEQLAKGNKSILDADPEAQALLEISGHSRHSEGLREVPDDE [TLDC1]	52.4	51.6	-0.0768	-0.592	-0.996	-0.0272
MGSLKEELLKAIWHAFTALDQDHSGKVSKSQLKVLSHNLCTVLKVPHDPVALEEHFRDDDEGPVSNQGYMPYLNRFILEKVQDNFDKIEFNRMCWTLCVKKNLTKNPLLITEEDAFKIWVIFNFLSEDKYPLIIVSEEIEYLLKKLTEAMGGGWQQEQFEHYKINFDDSKNGLSAWELIELIGNGQFSKGMDRQTVSMAINEVFNELILDVLKQGYMMKKGHRRKNWTERWFVLKPNIISYYVSEDLKDKKGDILLDENCCVESLPDKDGKKCLFLVKCFDKTFEISASDKKKKQEWIQAIHSTIHLLKLGSPPPHKEARQRRKELRKKQLAEQEELERQMKELQAANESKQQELEAVRKKLEEAASRAAEEEKKRLQTQVELQARFSTELEREKLIRQQMEEQVAQKSSELEQYLQRVRELEDMYLKLQEALEDERQARQDEETVRKLQARLLEEESSKRAELEKWHLEQQQAIQTTEAEKQELENQRVLKEQALQEAMEQLEQLELERKQALEQYEEVKKKLEMATNKTKSWKDKVAHHEGLIRLIEPGSKNPHLITNWGPAAFTEAELEEREKNWKEKKTTE [SWAP70]	52.6	50.9	-0.121	0.0893	-1.39	0.0573
MQRADSEQPSKRPRCDDSPRTPSNTPSAEADWSPGLELHPDYKTWGPEQVCSFLRRGGFEEPVLLKNIRENEITGALLPCLDESRFENLGVSSLGERKKLLSYIQRLVQIHVDTMKVINDPIHGHIELHPLLVRIIDTPQFQRLRYIKQLGGGYYVFPGASHNRFEHSLGVGYLAGCLVHALGEKQPELQISERDVLCVQIAGLCHDLGHGPFSHMFDGRFIPLARPEVKWTHEQGSVMMFEHLINSNGIKPVMEQYGLIPEEDICFIKEQIVGPLESPVEDSLWPYKGRPENKSFLYEIVSNKRNGIDVDKWDYFARDCHHLGIQNNFDYKRFIKFARVCEVDNELRICARDKEVGNLYDMFHTRNSLHRRAYQHKVGNIIDTMITDAFLKADDYIEITGAGGKKYRISTAIDDMEAYTKLTDNIFLEILYSTDPKLKDAREILKQIEYRNLFKYVGETQPTGQIKIKREDYESLPKEVASAKPKVLLDVKLKAEDFIVDVINMDYGMQEKNPIDHVSFYCKTAPNRAIRITKNQVSQLLPEKFAEQLIRVYCKKVDRKSLYAARQYFVQWCADRNFTKPQDGDVIAPLITPQKKEWNDSTSVQNPTRLREASKSRVQLFKDDPM [SAMHD1]	53.6	52.6	-0.0724	-3.29	-3.81	0.193
